Results on one compound are retold here after patent US9730938B2, “Bruton's tyrosine kinase inhibitor combinations and uses thereof” (Pharmacyclics LLC, priority 2014, dated 2017).

The subject of the assay is OCI-LY-10. The experiment in a line: Combined drug treatment cell viability, CellTiter-Glo assay (Example 2). The following applies: ibrutinib 0.256 nM; JAK3 10 μM / MCL-1 3 μM / medium alone; 3 days. (In general: In ATP-based viability assays light output follows the ATP content of the culture.)

Take `C=CC(=O)N1CCC[C@@H](n2nc(-c3ccc(Oc4ccccc4)cc3)c3c(N)ncnc32)C1` [ibrutinib, 1-((R)-3-(4-amino-3-(4-phenoxyphenyl)-1H-pyrazolo[3,4-d]pyrimidin-1-yl)piperidin-1-yl)prop-2-en-1-one]: the “luminescence (CellTiter-Glo)” value came to 40290.71.
